Data from patent publication US10745365B2, “Luminogenic and fluorogenic compounds and methods to detect molecules or conditions” (Promega Corporation, priority 2005, dated 2020).

Protein sequences, listed by entry. Tags and fused reporters are not part of them.
UniProt P08659, whole entry: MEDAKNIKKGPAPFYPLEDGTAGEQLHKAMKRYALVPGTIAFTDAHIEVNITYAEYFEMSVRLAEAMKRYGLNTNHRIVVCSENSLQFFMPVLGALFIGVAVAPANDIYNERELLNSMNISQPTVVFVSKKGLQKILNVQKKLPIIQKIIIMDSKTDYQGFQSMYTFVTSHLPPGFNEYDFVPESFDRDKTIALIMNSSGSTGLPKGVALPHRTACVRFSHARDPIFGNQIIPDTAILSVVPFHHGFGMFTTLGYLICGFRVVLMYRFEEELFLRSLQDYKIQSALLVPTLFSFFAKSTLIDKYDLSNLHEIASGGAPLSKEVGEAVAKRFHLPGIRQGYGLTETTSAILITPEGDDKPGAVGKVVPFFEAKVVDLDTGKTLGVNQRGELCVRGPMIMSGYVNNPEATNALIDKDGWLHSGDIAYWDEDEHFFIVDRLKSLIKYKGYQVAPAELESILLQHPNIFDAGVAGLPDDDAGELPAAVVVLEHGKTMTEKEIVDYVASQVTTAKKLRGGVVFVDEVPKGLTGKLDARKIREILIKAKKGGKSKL

Legend:
[1] = biological target: T1, QuantiLum Luciferase (firefly luciferase) (Photinus pyralis, UniProt P08659); experiment: Light emission of QuantiLum firefly luciferase with luciferin derivatives; details: for Light reading (Turner 20/20) at time 0: 0 min; for Light reading (Turner 20/20) at time 7: 7 min; for Light reading (Turner 20/20) at time 15: 15 min; for Light reading (Turner 20/20) at time 22: 22 min; for Light reading (Turner 20/20) at time 30: 30 min; for Light reading (Turner 20/20) at time 45: 45 min; for Light reading (Turner 20/20) at time 60: 60 min
[2] = biological target: T1, QuantiLum Luciferase (firefly luciferase); experiment: pH titration of 7′-fluoroluciferin luciferase reaction; type: biochemical; set-up: purchased Promega Corporation El 70
Experimental: For pH titrations, reagent was created containing 100 mM HEPES, 100 mM PIPES, 100 mM Tricine, 1 mM CDTA, 0.5% Tergitol NP-9, 0.03% Benzyl dodecyldimethyl ammonium bromide, 30 mM thiourea, 3 mM ATP, 6 mM magnesium sulfate, and 0.15 mM 7′-fluoroluciferin. All compounds except fluoroluciferin and ATP were purchased from Sigma Chemical. APT was purchased from Amersham/Invitrogen. The pH of solution was adjusted within the range of 8.5 to 6.4. Reactions were initiated by adding equal volumes (0.1 ml) of reagent and DMEM medium (Gibco/Invitrogen) containing 0.1% Prionex® (Pentapharm) and 1.4×10-5 mg/ml QuantiLum™ Luciferase (Promega Corporation).
Luminescence was measured for 0.5 seconds per well using Turner Biosystems Veritas.

[3] = biological target: T1, QuantiLum Luciferase (firefly luciferase); experiment: Residual active QuantiLum luciferase after reaction with derivative (Steady Glo); type: biochemical; set-up: purchased Promega Corporation El 70
[4] = biological target: T1, QuantiLum Luciferase (firefly luciferase); experiment: pH dependence of firefly luciferase signal with luciferin or 5′-fluoroluciferin; type: biochemical; set-up: purchased Promega Corporation El 70

Light reading (Turner 20/20) at time 0 ([1]; +Co A): off
Light reading (Turner 20/20) at time 7 ([1]; +Co A): off
Light reading (Turner 20/20) at time 15 ([1]; +Co A): 1,817,884,672
Light reading (Turner 20/20) at time 22 ([1]; +Co A): 1,207,508,736
Light reading (Turner 20/20) at time 30 ([1]; +Co A): 1,075,446,272
Light reading (Turner 20/20) at time 45 ([1]; +Co A): 737,134,016
Light reading (Turner 20/20) at time 60 ([1]; +Co A): 516,780,608
Light reading (Turner 20/20) at time 0 ([1]; +DTT): off
Light reading (Turner 20/20) at time 7 ([1]; +DTT): off
Light reading (Turner 20/20) at time 15 ([1]; +DTT): off
Light reading (Turner 20/20) at time 22 ([1]; +DTT): 1,828,845,952
Light reading (Turner 20/20) at time 30 ([1]; +DTT): 1,369,086,080
Light reading (Turner 20/20) at time 45 ([1]; +DTT): 882,840,768
Light reading (Turner 20/20) at time 60 ([1]; +DTT): 640,560,896
Light reading (Turner 20/20) at time 0 ([1]; No Additive): off
Light reading (Turner 20/20) at time 7 ([1]; No Additive): off
Light reading (Turner 20/20) at time 15 ([1]; No Additive): 1,920,967,552
Light reading (Turner 20/20) at time 22 ([1]; No Additive): 1,340,545,280
Light reading (Turner 20/20) at time 30 ([1]; No Additive): 1,080,656,384
Light reading (Turner 20/20) at time 45 ([1]; No Additive): 698,897,920
Light reading (Turner 20/20) at time 60 ([1]; No Additive): 507,915,488
Light reading (Turner 20/20) at time 0 ([1]; no ATP): 1,013,266
Light reading (Turner 20/20) at time 7 ([1]; no ATP): 7,266
Light reading (Turner 20/20) at time 15 ([1]; no ATP): 2,253
Light reading (Turner 20/20) at time 22 ([1]; no ATP): 248,151
Light reading (Turner 20/20) at time 30 ([1]; no ATP): 194,980
Light reading (Turner 20/20) at time 45 ([1]; no ATP): 27,586
Light reading (Turner 20/20) at time 60 ([1]; no ATP): 22,270
pH optima of firefly luciferase reaction [2]: approximately 8.2
Light emission from the active enzyme, sample time 0 min ([3]; reaction type A: no additive): 183.6
Light emission from the active enzyme, sample time 15 min ([3]; reaction type A: no additive): 170.7
Light emission from the active enzyme, sample time 30 min ([3]; reaction type A: no additive): 175.6
Light emission from the active enzyme, sample time 45 min ([3]; reaction type A: no additive): 164.6
Light emission from the active enzyme, sample time 60 min ([3]; reaction type A: no additive): 146.5
Light emission from the active enzyme, sample time 0 min ([3]; reaction type B: +Coenzyme A): 243.6
Light emission from the active enzyme, sample time 15 min ([3]; reaction type B: +Coenzyme A): 218.2
Light emission from the active enzyme, sample time 30 min ([3]; reaction type B: +Coenzyme A): 211.1
Light emission from the active enzyme, sample time 45 min ([3]; reaction type B: +Coenzyme A): 208.2
Light emission from the active enzyme, sample time 60 min ([3]; reaction type B: +Coenzyme A): 192.1
Light emission from the active enzyme, sample time 0 min ([3]; reaction type C: +DTT): 188.7
Light emission from the active enzyme, sample time 15 min ([3]; reaction type C: +DTT): 203.9
Light emission from the active enzyme, sample time 30 min ([3]; reaction type C: +DTT): 187.9
Light emission from the active enzyme, sample time 45 min ([3]; reaction type C: +DTT): 191.5
Light emission from the active enzyme, sample time 60 min ([3]; reaction type C: +DTT): 188.7
Light emission from the active enzyme, sample time 0 min ([3]; reaction type D: no ATP): 199.9
Light emission from the active enzyme, sample time 30 min ([3]; reaction type D: no ATP): 190.4
Light emission from the active enzyme, sample time 45 min ([3]; reaction type D: no ATP): 197.4
Light emission from the active enzyme, sample time 60 min ([3]; reaction type D: no ATP): 194.2
Absolute Luminescence ([4]; pH 6.900, MOPS): 330,277 RLU
Relative Luminescence (% of 8.3 Luciferin) ([4]; pH 6.900, MOPS): 23%
increase of luminescence over the pH range tested ([4]; pH 6.9 to 8.3): ~5 fold
Absolute Luminescence ([4]; pH 7.133, MOPS): 490,814 RLU
Relative Luminescence (% of 8.3 Luciferin) ([4]; pH 7.133, MOPS): 34%
Absolute Luminescence ([4]; pH 7.296, MOPS): 585,743 RLU
Relative Luminescence (% of 8.3 Luciferin) ([4]; pH 7.296, MOPS): 40%
Absolute Luminescence ([4]; pH 7.303, HEPES): 482,253 RLU
Relative Luminescence (% of 8.3 Luciferin) ([4]; pH 7.303, HEPES): 33%
Absolute Luminescence ([4]; pH 7.499, MOPS): 707,832 RLU
Relative Luminescence (% of 8.3 Luciferin) ([4]; pH 7.499, MOPS): 48%
Absolute Luminescence ([4]; pH 7.521, HEPES): 661,829 RLU
Relative Luminescence (% of 8.3 Luciferin) ([4]; pH 7.521, HEPES): 45%
Absolute Luminescence ([4]; pH 7.720, HEPES): 815,317 RLU
Relative Luminescence (% of 8.3 Luciferin) ([4]; pH 7.720, HEPES): 56%
Absolute Luminescence ([4]; pH 7.892, HEPES): 976,654 RLU
Relative Luminescence (% of 8.3 Luciferin) ([4]; pH 7.892, HEPES): 67%
SMILES: O=C(O)[C@H]1CSC(c2nc3ccc(O)cc3s2)=N1 [luciferin, (4S)-4,5-dihydro-2-(6-hydroxybenzothiazolyl)-4-thiazolecarboxylic acid, reference compound]
loss of luciferase activity on transformation of substrate ([3]; no additive (reactions 3A, 4A)): does not lead to a large loss of luciferase activity
